# Results as given in patent US11278555B2, “Combinational therapies for treatment of cancer comprising a bacteriochlorophyll derivative” (Yeda Research and Development Co. Ltd., priority 2016, dated 2022).
# Experiments:
# [1] = test system: orthotopic 4T1-Luc breast tumors; assay: Whole-body NIR fluorescence imaging of accumulation and clearance in 4T1 tumor bearing mice
# Experimental: • (i) Bacteriochlorophyll Derivatives—The Bchl derivatives and RGD-conjugates thereof were provided by Steba Biotech (Rehovot, Israel). […] Concentration was verified by spectrophotometric measurement. STL-7012 was provided as dipotassium salt. Working solution was prepared by dissolving STL-7012 K^+ salt in 5% mannitol solution (1 mg/ml). […] WST11 was supplied as a powder and kept in the dark at −20° C. Stock was prepared by dissolving WST11 in DDW containing 5% glucose and 0.67% mannitol, aliquoted and lyophilized. Working solution was reconstituted with DDW and the concentration of solution was confirmed spectrophotometrically. Alternatively, Clinical WST11 (batch: P00611, and 10-130611) was supplied as lyophilized formulation. Material was dissolved in 5% dextrose, aliquoted and stored at −20° C. […] Aliquots were thawed, diluted with saline to a desired concentration and used on the same day at a dose of 75 mg/kg. Cyclophosphamide (CTX, Endoxan®, Baxter Oncology Gmbh, Germany) was purchased from a local pharmacy. A stock solution of 20 mg/ml was prepared by dissolving in 0.9% NaCl, aliquoted and stored at −20° C. Aliquots were thawed, diluted with saline if needed to a desired concentration and used on the same day prepared at indicated doses. • (iii) Murine cell lines—Mammary luciferase (luc)-labeled 4T1 cell line (4T1-Luc) was a kind gift from Dr. Zvi Granot (Faculty of Medicine, The Hebrew University of Jerusalem, Israel); melanoma B16-F10 cell line was obtained from the American Type Culture Collection (ATCC, Manassas, Va.); bladder MB49 cell line was a kind gift from James Allison (MSKCC, New York, USA), and luc-labeled MB49-cell line was established using the murine stem cell virus (MSCV)-puromycin-luc-GFP construct (kindly provided by Dr. Emily Cheng, Human Oncology and Pathogenesis Program, MSKCC). 4T1 and MB49 cells were maintained in DMEM medium and B16-F10 cells in RPMI medium supplemented with 1 mmol/L sodium pyruvate, 10% fetal calf serum (FCS), 250 μg/ml hygromycin, 0.06 mg/ml penicillin and 0.1 mg/ml streptomycin. […]
# [2] = test system: splenic immune cells of 4T1-bearing mice; assay: FACS profile of splenic immune cell populations in 4T1-bearing mice after STL-6014 PDT and Gemzar; format: in vivo; details: second week post treatment
# Experimental: Concentration was verified by spectrophotometric measurement. STL-7012 was provided as dipotassium salt. […] For mammary tumor treatment: Mice were anesthetized as before. […] Control groups received 0.9% NaCl. […] Following excision mice were euthanized.
# FIG. 12 presents the treatment impact of STL-6014-PDT combined with Gemzar administration on the immune cell profile in spleen of 4T1-bearing mice. The profile of splenic cell populations was assessed following 3 treatment regimens: STL-6014 PDT, STL-6014 PDT with Gemzar (starting 2 days before PDT), and Gemzar alone. Treated groups were compared to tumor-bearing controls. Animals with good treatment responses (as judged by primary tumor ablation at 1, 2, and 3 weeks post-treatment) were taken for analysis. […] But the effect of the combined treatment modality appeared much stronger. […] The sustainability of the combined therapy on the MDSC profile nicely correlates with the time required for the evolution of adaptive immunity (Fisher et al., 2017; Nowak et al., 2003; Pitt et al., 2016).
substance,measurement,setting,value
3^1-oxo-15-methoxycarbonylmethyl-Rhodobacteriochlorin 13^1-(2-sulfoethyl)amide-17^3-(cycloRGDfK) amide potassium salt [STL-6014],time after administration at which the tumor became evident,[1]; i.v. 7.5 mg/kg,~2 h
same,accumulation in the tumor (NIR fluorescence),"[1]; i.v., STL-6014 7.5 mg/kg, STL-7012 9.5 mg/kg",selective accumulation in the tumor
same,accumulation in the tumor relative to surrounding tissues,[1]; on the day after administration,markedly accumulated in the tumor
same,impact on MDSCs in spleen relative to control,[2],highly significant
